The results in this text go back to article PMC10355216, “The C-terminal tail of CSNAP attenuates the CSN complex” (Life Science Alliance, 2023).

The test system of the assay is CSN^ΔCSNAP complex. Briefly: Peptide array screen of C-CSNAP peptides with rCSN^ΔCSNAP.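 Also: Array-printed peptides incubated with 0.5 µM CSN^ΔCSNAP, bound complex detected by anti-CSN3 antibody plus HRP-linked secondary, spot intensity expressed relative to the parent reference peptide spot.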 Type of assay: binding. Conditions: average of 5 experiments. As for the experimental part:
The same array was also reacted with the CSN^ΔCSNAP complex (Fig S3A–D and Table S2). […] Taken together, the peptide array analysis not only provided insight into the optimal C-CSNAP peptide characteristics but also validated and supported the predicted model.
Figure S3. Peptide array screen of modified C-CSNAP peptides. C-CSNAP peptide and its derivatives were printed on a microarray. The array was blocked and incubated with or without the CSN∆CSNAP complex and probed using an anti-CSN3 antibody and HRP-conjugated secondary antibody. To assess non-specific binding of the antibodies to the array, anti-CSN3 and anti-GAR-HRP were used without the addition of the COP9 signalosome complex (CSN). Signal intensity of each spot was measured and normalized to the intensity of the spot of C-CSNAP (A1). Measured values for each spot were averaged from six arrays and plotted with standard errors SEM. […] In (C), results for spot B22 was disregarded because of non-specific CSN binding to this spot. (A) A representative image of the peptide array (left) and the background (right). […]
Supplementary file : Table S2 Peptide array densitometry data using rCSN^ΔCSNAP. […] Intensity values are normalized to the intensity of the 16AA C-CSNAP peptide (A1) on each array from three independent experiments in duplicates, and averages from the six replicates are calculated with SEM. […]

On to “LL-Aib-LL-Aib-LL-Aib-GGG-DFFNDFEDLFDDDDIQ [Position H14, C-CSNAP with N-terminal 3x(LL-Aib)-GGG]”, for which, for the setting “peptide array, rCSN^ΔCSNAP, left and right spots”, the “Average fold change (intensities as fold of C-CSNAP (A1))” value amounted to 1.3512 fold.
“PAVDEMFPEGAGPYVDLDEAGGSTGLLMDLAANEKAVHADFFNDFEDLFDDDDIQ [Position B16, CSNAP residues 3-57]” showed an Average fold change (peptide array with rCSN^ΔCSNAP, left and right (n = 10), fold of C-CSNAP (A1)) of 1.3540 fold.
